# Measured melting point values of organic chemicals

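The OPERA project collected these measurements from public sources as training and test data for property models. A listed value is a point estimate from one report or more. Method and conditions are not stated for these values. A value may pool stereoisomers or salt forms, and the file does not say which form was measured. Unmarked limits or estimates from the upstream databases cannot be ruled out.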

The melting point is given in degrees Celsius. "via" names the databases from which the curators took the value.

Listed for Cc1oc(C)c(C(=O)O)c1C: mp 132 °C (via OCHEM). O=C1COc2ccccc2C(=O)N1 has mp 150 °C (via OCHEM). For O=C(O)c1cc2ccccc2c(=O)[nH]1 the data give mp 319 °C (via OCHEM). CCOC(=O)c1[nH]c2ccccc2c1O is reported with mp 93 °C (via OCHEM).

Listed for O=C(O)C=Cc1csc2ccccc12: mp 226 °C (via OCHEM). NS(=O)(=O)c1ccc(N2CCOCC2)c(C(=O)O)c1 is reported with mp 278 °C (via OCHEM). Nc1nnc(-c2ccncc2)o1 has mp 240 °C (via OCHEM). COc1ccc(C(=O)CCl)c(OC)c1 is reported with mp 49 °C (via OCHEM).

Listed for CCCC(=O)c1cccc([N+](=O)[O-])c1: mp 61 °C (via OCHEM). The entry for CSc1ccccc1C(=O)N(NC(=O)c1ccccc1)C(C)(C)C lists mp 196 °C (via OCHEM). Listed for Clc1nc(-c2ccccc2)nc2scc(-c3ccccc3)c12: mp 148 °C (via OCHEM). For O=[N+]([O-])c1cc(S(=O)(=O)N2CCOCC2)ccc1Cl the data give mp 154 °C (via OCHEM).

The entry for Cc1ccc(S(=O)(=O)N(C)c2ccc(O)cc2)cc1 lists mp 138 °C (via OCHEM). For Nc1ncnc(Nc2ccc(F)cc2)n1 the data give mp 250 °C (via OCHEM). For Nc1cc(-c2ccco2)no1 the data give mp 97 °C (via OCHEM). O=C(O)c1n[nH]c2c1CCC2 has mp 288 °C (via OCHEM).

For CCOC(=O)C1CN(Cc2ccccc2)CCC1=O (configuration not stated) the data give mp 162 °C (via OCHEM). Listed for CC(Cl)C(=O)Nc1cccc([N+](=O)[O-])c1 (configuration not stated): mp 116 °C (via OCHEM). The entry for O=C(O)CSCc1cccc(Cl)c1 lists mp 75 °C (via OCHEM). The entry for Nc1nc2ccc(S(N)(=O)=O)cc2s1 lists mp 260 °C (via OCHEM).

Listed for O=C(O)c1ccc2c(=O)[nH][nH]c(=O)c2c1: mp 251 °C (via OCHEM). CN(C)CCCN(CCCN(C)C)CCCN(C)C is reported with mp -91 °C (via eChemPortal). The entry for O=C(O)C1CSC(c2cccs2)N1 (configuration not stated) lists mp 149 °C (via OCHEM). Fc1cc2nc[nH]c2cc1F has mp 160 °C (via OCHEM).

Listed for c1ccc(C2NCCn3cccc32)cc1 (configuration not stated): mp 73 °C (via OCHEM). O=C1Nc2cc(F)ccc2C1=O is reported with mp 185 °C (via OCHEM). Listed for CCN(CC)C(=O)Cc1ccccc1: mp 86 °C (via PubChem). The entry for O=c1c2ccccc2nnn1CCl lists mp 131 °C (via OCHEM).

For NC(=O)NC(Cc1ccccc1)C(=O)O (configuration not stated) the data give mp 187 °C (via OCHEM). Cc1c(Cl)cc(S(=O)(=O)Cl)cc1[N+](=O)[O-] has mp 61 °C (via OCHEM). NC(=S)C1CCCC1 is reported with mp 85 °C (via OCHEM). CC1(C)O[C@](C)(C(=O)O)CC[C@@H]1C(=O)O (relative stereo) has mp 208 °C (via OCHEM).

Nc1nc(-c2cccc(F)c2)cs1 has mp 114 °C (via OCHEM). For COc1ccc(C(=O)C(Cl)c2ccc(OC)cc2)cc1 (configuration not stated) the data give mp 70 °C (via OCHEM). Cc1cc(C(=O)O)c(C)n1-c1ccccc1 is reported with mp 214 °C (via OCHEM). The entry for S=c1[nH]c(-c2ccccc2)c(-c2ccccc2)n1Cc1ccccc1 lists mp 281 °C (via OCHEM).

C=CCc1cc([N+](=O)[O-])ccc1O is reported with mp 69 °C (via OCHEM). The entry for Nc1cc(-c2ccc(F)cc2)no1 lists mp 101 °C (via OCHEM). CC(C)[C@@H]1NC(=O)O[C@@H]1CCC(F)(F)C(F)(F)C(F)(F)C(F)(F)C(F)(F)C(F)(F)F has mp 97.5 °C (via ChemicalBook). Listed for CC(C)(C)OC(=O)NC1CC1: mp 63 °C (via OCHEM).

The entry for CCc1nc2c(C)nc(C)cc2n1-c1ccc(CCNC(=O)NS(=O)(=O)c2ccc(C)cc2)cc1 lists mp 136 °C (via PubChem). For N#CC=C(Cl)c1ccccc1 the data give mp 33 °C (via OCHEM). Listed for CCOC(=O)C(C(C)=O)C1CCS(=O)(=O)C1 (configuration not stated): mp 75.5 °C (via OCHEM). Listed for COC(=O)c1ccc(I)c(Br)c1: mp 244 °C (via OCHEM).

Nc1cccc(S(=O)(=O)CCOS(=O)(=O)O)c1 has mp 290 °C (via eChemPortal). Cc1nc2ccccc2nc1CCl is reported with mp 122 °C (via OCHEM). CCOc1c(Br)cc(C=O)cc1OC is reported with mp 85 °C (via OCHEM).

A selection of 5 entries from above:

structure (SMILES)	mp (°C)	via
Cc1cc(C(=O)O)c(C)n1-c1ccccc1	214	OCHEM
O=C(O)C=Cc1csc2ccccc12	226	OCHEM
O=C(O)c1n[nH]c2c1CCC2	288	OCHEM
O=C(O)C1CSC(c2cccs2)N1 (configuration not stated)	149	OCHEM
COC(=O)c1ccc(I)c(Br)c1	244	OCHEM

Data: OPERA 2.9 data sets, kmansouri/OPERA on GitHub.